# Measured values: patent US20240254218A1, “COMPOSITIONS AND METHODS FOR TREATING NEURODEGENERATIVE DISEASES BY INHIBITING FSH” (ICAHN SCHOOL OF MEDICINE AT MOUNT SINAI, priority 2021, published 2024)
# How the values were obtained:
# [1] = system: 3xTg;Cebpb^+/− mice; test: FSH treatment of 3xTg and 3xTg;Cebpb+/- mice; type: in vivo, mouse
# Text: 3xTg mice were obtained from Jackson Laboratory (stock #34830). The mice harbor a human transgene with mutated APP^K670N/M671L and MAPT^P301L, and a knock-in mutation Psen1^M146V and display AD neuropathology and cognitive decline at about 3 to 4 months (Oddo, S. et al. Neuron 39, 409-421, (2003)), which is known to be accelerated upon ovariectomy. Mutant Cebpb mice (Sterneck, E., et al. Genes Dev 11, 2153-2162, (1997)) were maintained at Emory University as heterozygotes on C57BL/6 and 129Sv backgrounds. The two strains were crossed to generate viable F1 hybrid wild type and Cebpb^+/− littermates; the latter were then crossed with 3xTg mice to generate compound 3xTg;Cebpb^+/− and 3xTg;Cebpb^+/− mutants. APP/PS1 mice, which were generated and bred at Mount Sinai, harbor a human transgene comprising APPK^670N/M671L and PSEN1^ΔE9 (Minkeviciene, R. et al. J Neurochem 105, 584-594, (2008)). […] These mice, when bred on a pure C57BL/6J background, show evidence of sudden death due to seizure activity (Minkeviciene, R. et al. J Neurosci 29, 3453-3462, (2009)). Animal care and handling were performed according to NIH animal care guidelines at both Emory and Mount Sinai. The protocols were reviewed and approved by the respective Institutional Animal Care and Use Committees.
# Compound 3xTg;Cebpb^+/− mutants were generated on a C57BL/6 background by crossing 3xTg with Cebpb^+/− mice. 2.5- to 3-month-old compound mutants were treated with recombinant human FSH (5 IU/mouse) daily for 3 months. Of note is that Cebpb-mice were not utilized due to a potentially confounding metabolic phenotype (Millward, C. A. et al. Diabetes 56, 161-167, (2007)). […] Likewise, FSH-induced Cebpb, Lgmn, App and Mapt expression was attenuated in 3xTg;Cebpb^+/− mice compared with 3xTg littermates (FIG. 13A).
# [2] = system: 3xTg mice; test: FSH injection in ovariectomized, estrogen-replete 3xTg mice; type: in vivo, mouse
# Protocol: 3xTg mice were ovariectomized at 3 months and supplemented with 17β-estradiol using 90-day-release pellets (E2, 0.36 mg) to render them biochemically eugonadal. The mice were randomly divided to be injected with PBS (OVX+E2+PBS) or recombinant human FSH (5 IU per mouse daily, i.p.) for 3 months (OVX+E2+FSH). N=4, two-tailed Student's t-test, *P<0.05, **P<0.01.
# Given that FSH increases serum estrogen, mice were ovariectomized and serum estrogen levels were clamped close to basal (˜75 μg/ml) by subcutaneously implanting 17β-estradiol 90-day-release-pellets (0.36 mg) before FSH (5 IU daily, i.p.) injections for 3 months (FIG. 12A). […] This experiment provides unequivocal evidence that the effect of FSH is independent of estrogen.
# [3] = system: 3xTg mice; test: Morris Water Maze, FSH-injected 3xTg mice; type: in vivo, mouse; conditions: following FSH injection
# Text: N=7 mice/group, two-tailed Student's t-test, *P<0.05, **P<0.01.
# Mice were trained in a round, water-filled tub (52 inch diameter) in an environment rich with extra maze cues as described previously. Each subject was given 4 trials/day for 5 consecutive days with a 15-min inter-trial interval. […] Following the 5 day of task acquisition, a probe trial was presented during which time the platform was removed and the percentage of time spent in the quadrant which previously contained the escape platform during task acquisition was measured over 60 sec. All trials were analyzed for latency by means of MazeScan (Clever Sys, Inc.).
# [4] = system: FSHR; test: Time course of FSH effects on signalling (Western); type: cell-based
# Text: Statistics: mean±SEM; three biological replicates; one-way ANOVA; *P<0.05, **P<0.01.
# To explore downstream consequences of FSHR stimulation, the effect of FSH on the phosphorylation of ERK1/2, SRPK2 and AKT was studied. Of note, MAPK-induced phosphorylation of residue T188 of C/EBPβ regulates its transcriptional activity (Ramji, D. P. & Foka, P. Biochem J 365, 561-575, (2002)). Likewise, AKT phosphorylates SRPK2, which, in turn, activates AEP by phosphorylating residue S266. […] Inhibitors of each pathway were utilized, including pertussis toxin that decouples the bone and adipose tissue FSHRs from Gααi protein (Liu, P. et al. Nature 546, 107-112, (2017); Sun, L. et al. FSH directly regulates bone mass. Cell 125, 247-260, (2006)). Pertussis toxin inhibited FSH-induced C/EBPβ and AEP activation and AKT phosphorylation (FIG. 2E). […] Furthermore, the AKT inhibitor AKTi-1/2 attenuated the induction by FSH of C/EBPβexpression, AEP cleavage and phosphorylation, and phosphorylation of the downstream target SRPK2, but not ERK1/2 (FIG. 2E). In contrast, while the MEK1 inhibitor PD98059 blocked FSH-induced C/EBPβ, AEP and SRPK2 activation, AKT was unaffected (FIG. 2E).
# [5] = system: 3xTg mice; test: Electrophysiology of long-term potentiation, FSH-injected 3xTg mice; type: in vivo, mouse
# Protocol: Traces are representative field excitatory post-synaptic potentials (fEPSPs) recorded before (black) and 60 min after (red) Tris-buffered saline (TBS). Mean±SEM, N=3, **P<0.01, two-way ANOVA and Bonferroni's posthoc test.
# Mice were anaesthetized with isoflurane, decapitated, and their brains dropped in ice-cold artificial cerebrospinal fluid (a-CSF) containing 124 mM NaCl, 3 mM KCl, 1.25 mM NaH2PO4, 6.0 mM MgCl2, 26 mM NaHCO3, 2.0 mM CaCl2, and 10 mM glucose. Hippocampi were dissected and cut into 400-mm thick transverse slices with a vibratome. After incubation at 23-24° C. in a-CSF for 60 to 90 min, slices were placed in a recording chamber (RC-22C, Warner Instruments) on the stage of an upright microscope (Olympus CX-31) and perfused at a rate of 3 mL per min with a-CSF (containing 1 mM MgCl2) at 23 to 24° C. A 0.1 MU tungsten monopolar electrode was used to stimulate the Schaffer collaterals. The field excitatory post-synaptic potentials (fEPSPs) were recorded in CA1 stratum radiatum by a glass microelectrode filled with a-CSF with resistance of 3-4 MU. The stimulation output (Master-8; AMPI, Jerusalem) was controlled by the trigger function of an EPC9 amplifier (HEKA Elektronik, Lambrecht, Germany). fEPSPs were recorded under current-clamp mode. […] The magnitudes of LTP are expressed as the mean percentage of baseline fEPSP initial slope.
# [6] = system: 3xTg mice; test: Systemic recombinant human FSH injection in 3xTg mice: neuropathology; type: in vivo, mouse
# Protocol: (§1) Tissue homogenates or cell lysates (10 μg) were incubated in 200 μl assay buffer (20 mM citric acid, 60 mM Na2HPO4, 1 mM EDTA, 0.1% CHAPS, and 1 mM DTT, pH 6.0) containing 20 μM δ-secretase substrate, Z-Ala-Ala-Asn-AMC (Bachem). AMC released by substrate cleavage was quantified by measuring at 460 nm in a fluorescence plate reader at 37° C. in kinetic mode.
# (§2) mRNA levels were analyzed by quantitative PCR (qPCR). Briefly, RNA was isolated by TRIzol (Life Technologies). Reverse transcription was performed with SuperScript III reverse transcriptase (Life Technologies). Gene-specific primers and probes were designed and bought from Taqman (Life Technologies). All qPCR reactions were performed using the ABI 7500-Fast Real-Time PCR System and the Taqman Universal Master Mix Kit (Life Technologies). The relative quantification of gene expression was calculated using the ΔΔCt method.
# (§3) Cells and brain tissue were washed with ice-cold PBS and lysed in (50 μmM Tris-HCl, pH 7.4, 40 mM NaCl, 1 mM EDTA, 0.5% Triton X-100, 1.5 mM Na3VO4, 50 mM NaF, 10 mM sodium pyrophosphate, 10 mM sodium β-glycerophosphate, supplemented with protease inhibitors cocktail) at 4° C. for 0.5 hours, and centrifuged for 25 min at 15,000 rpm. The supernatant was boiled in SDS loading buffer. After SDS-PAGE, the samples were transferred to a nitrocellulose membrane. The membrane was blocked with TBS containing 5% nonfat milk and 0.1% Tween 20 (TBST) at room temperature for 2 hours, followed by incubation with primary antibody at 4° C. overnight, and with the secondary antibody at room temperature for 2 hours. After washing with TBST, the membrane was developed using the enhanced chemiluminescent (ECL) detection system.
# Free-floating 25-am brain sections were used for immunostaining. For immunohistochemistry, brain sections were treated with 0.3% H2O2 for 10 minutes. Sections were washed three times in PBS and blocked in 1% BSA and 0.3% Triton X-100 for 30 min, followed by overnight incubation with anti-AP antibody (1:400), and AT8 (1:200) at 4° C. Signal was developed using Mouse and Rabbit Specific HRP/DAB (ABC) Detection IHC kit (Abcam). For immunofluorescence staining, sections were incubated overnight at 4° C. with primary Aβ (1:400), APPC586 (1:200), AT8 (1:200) or Taul-368 (1:600) antibodies. After washing with Tris-buffered saline, sections were incubated with a mixture of Alexa Fluor 488- and 594-coupled secondary antibodies (Invitrogen) for detection. DAPI (1 μg/mL) (Sigma) was used for staining nuclei. Images were acquired with an Olympus Confocal FV1000 Imaging System.
# Brain sections (25 μm) were incubated in 5% periodic acid for 5 min, washed in water, and then placed in alkaline silver iodide solution (containing 1% silver nitrate) for 1 min. The sections were then washed in 0.5% acetic acid for 10 min, placed in developer solution for 15 min, and washed with 0.5% acetic acid and then with water. The sections were treated with 0.1% gold chloride for 5 min, washed in water, and incubated in 1% sodium thiosulfate (hypo) for 5 min before a final washing.
# Amyloid plaques were stained with Thioflavin-S. Free-floating 25-μm brain sections were incubated in 0.25% potassium permanganate solution for 20 min, rinsed in distilled water, and incubated in bleaching solution containing 2% oxalic acid and 1% potassium metabisulfite for 2 min. After rinsing in distilled water, the sections were transferred to blocking solution containing 1% NaOH and 0.9% H2O2 for 20 min. The sections were incubated for 5 sec in 0.25% acetic acid, washed in distilled water, and stained for 5 min with 0.0125% thioflavin-S in 50% ethanol. The sections were washed with 50% ethanol, placed in distilled water, covered with a glass cover using mounting solution, and examined under a fluorescence microscope.
# Mouse brains were fixed in 10% formalin for 24 h and then immersed in 3% potassium bichromate for 3 days in the dark. […]
# [7] = system: C/EBPβ-AEP/δ-secretase pathway; test: FSH stimulation of SH-SY5Y cells (Western, qPCR, AEP activity); type: cell-based, human
# Protocol: The human neuroblastoma cell line SH-SY5Y, obtained from ATCC, was cultured in DMEM/F12 with 10% fetal bovine serum (FBS), penicillin (100 units/ml) and streptomycin (100 μg/ml). SH-SY5Y transfection was performed using Lipofectamine 3000 (Invitrogen). Primary culture of rat cortical neurons was described earlier. LV-shCebpb-GFP, LV-GFP and AAV-AEP^C189S were packaged by Viral Vector Core (VVC) of Emory University. 2 μl of virus solution was added to 1 ml culture medium and applied to primary neuron cultures. Cells were incubated at 37° C. in a humidified atmosphere of 5% CO2.
# as §1, §2, §3
# To study whether FSH acts on the brain FSHR to activate the C/EBPβ-AEP/δ-secretase pathway, human recombinant FSH (30 ng/ml) was used to stimulate human neuroblastoma SH-SY5Y cells.
# [8] = 3xTg mice, FSH 5 IU/mouse daily, 3 months
# [9] = estrogen-replete (eugonadal) mice
# [10] = FSH 30 ng/ml, time-dependent, Western
substance,measurement,setting,value
"FSH: human recombinant follicle-stimulating hormone, a glycoprotein polypeptide hormone",Aβ and pTau signals in the hippocampus (immunohistochemistry),[1]; 3xTg mice,enhanced
same,dendritic spine numbers upon FSH treatment,[1]; 3xTg mice,marked decrements
same,AEP/δ-secretase activity,[1]; [8],markedly increased
same,"accumulation of APP^1-373 APP^1-585, Tau^1-368 and pTau",[1]; [8],led to the accumulation
same,Aβ and pTau signals in the hippocampus (immunohistochemistry),[1]; 3xTg;Cebpb^+/− mice,sharply reduced
same,"all responses to FSH (AEP activity, APP/Tau fragments, pTau)",[1]; 3xTg;Cebpb^+/− mice,attenuated
same,"FSH-induced Cebpb, Lgmn, App and Mapt expression",[1]; 3xTg;Cebpb^+/− mice compared with 3xTg littermates,attenuated
same,"C/EBPβ and AEP expression, cleavage of APP and Tau, and Tau phosphorylation","[2]; clamped estrogen levels, FSH 5 IU daily i.p., 3 months",continued to induce
same,AEP/δ-secretase activation,[2]; [9],induced
same,Aβ and pTau accumulation,[2]; [9],led to Aβ and pTau accumulation
same,latency to mount the platform,[3],increased
same,time spent in the target quadrant,[3],reduced
same,"total C/EBPβ, pC/EBPβ, and active AEP",[4]; from 5 minutes post-FSH exposure,progressively increase
same,NF-κB p65,[4]; post-FSH exposure,delayed elevation
same,"time of peak ERK1/2, AKT and SRPK2 phosphorylation",[4]; post-FSH exposure,~30 min
same,fEPSP in the CA1 hippocampal region (long-term potentiation),[5],reduced
same,apoptosis in hippocampal and cortical neurons,"[6]; FSH 5 IU/mouse daily, 3 months",triggered marked apoptosis
same,"cleavage of APP and Tau to APP^1-373, APP^1-585 and Tau^1-368, and phosphorylated Tau","[6]; FSH 5 IU/mouse daily, 3 months",induced
same,dendritic spine and synapse numbers in the hippocampus,"[6]; FSH 5 IU/mouse daily, 3 months",reduced
same,"pTau and Aβ, and both Aβ40 and Aβ42 isoforms","[6]; FSH 5 IU/mouse daily, 3 months",induced
same,C/EBPβ and AEP in 3xTg brains,"[6]; FSH 5 IU/mouse daily, 3 months, vs PBS",marked increase
same,"Cebpb, Lgmn, App, and Mapt mRNA expression",[6]; both sexes,increased
same,"plaque formation (thioflavin staining, silver staining)","[6]; hippocampal sections, cortex, CA1 and dentate gyrus",plaque formation confirmed
same,"expression of pro-inflammatory cytokines IL1β, IL-6 and TNFα",[7]; FSH,induced
same,AEP activity,[7]; FSH 30 ng/ml,enhanced
same,cleavage of APP and Tau to APP^1-585 and Tau^1-368,"[7]; FSH 30 ng/ml, Western",cleaved both APP and Tau
same,"Cebpb, Lgmn, App and Mapt mRNA","[7]; FSH 30 ng/ml, quantitative PCR",time-dependent increases
same,cleaved (active) AEP,[7]; [10],increased
same,total and phosphorylated C/EBPβ,[7]; [10],increased
